This passage reports EC50 in the CRE-luciferase assay, HEK293 CRE-luc2P cells expressing recombinant GCGR, 0.5% human plasma and EC50 of cAMP generation (AlphaScreen cAMP assay), CHO-K1 cells expressing human GCGR, 0.1% BSA results from article PMC9679702, “BI 456906: Discovery and preclinical pharmacology of a novel GCGR/GLP-1R dual agonist with robust anti-obesity efficacy” (Molecular Metabolism, 2022).

Chains of the proteins cited; added tags and fusions are not shown. Residues count along the entry.
UniProt P47871, 26-477: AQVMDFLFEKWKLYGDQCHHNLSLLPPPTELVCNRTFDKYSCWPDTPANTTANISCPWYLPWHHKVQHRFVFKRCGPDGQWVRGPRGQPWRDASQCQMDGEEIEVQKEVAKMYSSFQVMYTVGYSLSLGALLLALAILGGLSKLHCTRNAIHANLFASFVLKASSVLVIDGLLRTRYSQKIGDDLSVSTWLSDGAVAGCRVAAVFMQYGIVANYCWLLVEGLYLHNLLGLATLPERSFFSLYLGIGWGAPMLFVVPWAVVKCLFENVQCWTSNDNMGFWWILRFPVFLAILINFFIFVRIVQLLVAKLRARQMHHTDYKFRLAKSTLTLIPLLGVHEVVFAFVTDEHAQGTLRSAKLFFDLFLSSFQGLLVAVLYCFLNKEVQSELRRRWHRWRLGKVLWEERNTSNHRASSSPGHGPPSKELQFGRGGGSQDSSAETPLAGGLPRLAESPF

In assay [1] the target is human glucagon receptor (human) (UniProt P47871).
The target is the same in assay [2]. The source holds these as a separate data set.

On to glucagon (peptide), for which the EC50 in the CRE-luciferase assay, HEK293 CRE-luc2P cells expressing recombinant GCGR, 0.5% human plasma in assay [1] amounted to 47 pM. In assay [2], this substance displayed an EC50 of cAMP generation (AlphaScreen cAMP assay), CHO-K1 cells expressing human GCGR, 0.1% BSA of 20 pM.
